## scFv variants of Ab-95 (light chain) against a SARS-CoV-2 spike peptide

The target is the same throughout: PDVDLGDISGINAS, from the HR2 region of SARS-CoV-2 spike.

The variants keep the heavy chain, the linker and the frameworks of Ab-95 (scFv order VH, a 15-residue (Gly4Ser)3 linker, VL).
VH: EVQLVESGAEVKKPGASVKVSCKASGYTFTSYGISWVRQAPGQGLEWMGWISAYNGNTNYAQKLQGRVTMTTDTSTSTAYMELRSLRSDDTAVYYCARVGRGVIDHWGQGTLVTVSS
VL: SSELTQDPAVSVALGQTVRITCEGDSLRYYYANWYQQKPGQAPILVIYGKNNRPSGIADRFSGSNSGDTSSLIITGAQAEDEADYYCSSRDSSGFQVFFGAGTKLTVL

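The starting antibody came from a phage panning campaign against this peptide. Variants in AAYL52 differ from the parent at up to three CDR positions; double and triple changes were sampled at random. In AlphaSeq, yeast of one mating type display the scFv and yeast of the other type display the target. After mating in shaken culture at 30 °C for 16 h, diploids were selected and their barcode pairs sequenced. Each replicate has its own calibration line, from reference interactions of the BCL2 family. The assay was run in three technical replicates.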

Substitutions are numbered in sequence along the VL above, starting at 1 (not Kabat). Scale: log10 of Kd in nM, estimated from mating counts; low values are strong binders. Replicates are averaged; those with no signal do not enter the mean. A pair that was not seen in that replicate is written "ND"; this usually means weak binding, but a binder can also be missed. Background: pairings of library AAYL52 with three empty control strains gave a value in 28% of cases (median 3.91, 5th percentile 2.90). Values in that range, when seen in few replicates, are hard to tell from nonspecific mating. Also given: how often the same scFv was detected with the empty control strains, with their mean in brackets. For reference, the parent read 2.31 as the reference entry and 2.25 as a member of this library.

{"changes": "S26I/R90S", "replicates, log10 nM": "4.20 3.85 ND", "mean, log10 nM": "4.02", "empty controls": "4 of 9 (3.30)"}
{"changes": "Y29K/K50S/V97N", "replicates, log10 nM": "1.98 1.87 1.59", "mean, log10 nM": "1.81", "empty controls": "0 of 9"}
{"changes": "K50N/R90K/D91I", "replicates, log10 nM": "ND ND ND", "mean, log10 nM": "ND", "empty controls": "0 of 9"}
{"changes": "L27I/Y31V/S88Q", "replicates, log10 nM": "ND ND ND", "mean, log10 nM": "ND", "empty controls": "2 of 9 (3.84)"}
{"changes": "N33A/R90V/V97S", "replicates, log10 nM": "3.24 3.60 ND", "mean, log10 nM": "3.42", "empty controls": "2 of 9 (3.14)"}
{"changes": "Y29E/N33M/G49V", "replicates, log10 nM": "ND 4.22 ND", "mean, log10 nM": "4.22", "empty controls": "4 of 9 (4.09)"}
{"changes": "S26C/G94M/F98G", "replicates, log10 nM": "3.71 4.63 3.13", "mean, log10 nM": "3.82", "empty controls": "3 of 9 (3.16)"}
{"changes": "A32D/P54H/S93L", "replicates, log10 nM": "3.40 ND ND", "mean, log10 nM": "3.40", "empty controls": "1 of 9 (5.27)"}
{"changes": "E23P/N33S/G94S", "replicates, log10 nM": "3.86 5.66 4.54", "mean, log10 nM": "4.69", "empty controls": "2 of 9 (4.58)"}
{"changes": "L27P/R28G/Y29W", "replicates, log10 nM": "3.35 2.75 3.06", "mean, log10 nM": "3.05", "empty controls": "1 of 9 (3.40)"}
{"changes": "E23F/L27C/S89Y", "replicates, log10 nM": "ND 4.06 ND", "mean, log10 nM": "4.06", "empty controls": "0 of 9"}
{"changes": "P54L/Q96R/V97D", "replicates, log10 nM": "2.74 2.23 2.32", "mean, log10 nM": "2.43", "empty controls": "3 of 9 (3.42)"}
{"changes": "G24H/Y29L/R53W", "replicates, log10 nM": "4.03 ND ND", "mean, log10 nM": "4.03", "empty controls": "2 of 9 (4.17)"}
{"changes": "R28Q/N33W/F98Q", "replicates, log10 nM": "3.47 3.72 ND", "mean, log10 nM": "3.60", "empty controls": "4 of 9 (4.17)"}
{"changes": "Y30V/S89Q/F95P", "replicates, log10 nM": "1.22 2.22 1.81", "mean, log10 nM": "1.75", "empty controls": "0 of 9"}
{"changes": "S26P/Y31D/G94R", "replicates, log10 nM": "2.03 2.55 1.63", "mean, log10 nM": "2.07", "empty controls": "0 of 9"}
{"changes": "L27I/N52W/R53C", "replicates, log10 nM": "ND 5.07 ND", "mean, log10 nM": "5.07", "empty controls": "2 of 9 (4.27)"}
{"changes": "P54T/S89A/S93E", "replicates, log10 nM": "2.91 3.12 ND", "mean, log10 nM": "3.01", "empty controls": "2 of 9 (4.07)"}
{"changes": "E23D/A32T/N52G", "replicates, log10 nM": "1.65 1.94 1.83", "mean, log10 nM": "1.81", "empty controls": "1 of 9 (5.63)"}
{"changes": "E23R/G94M/F98C", "replicates, log10 nM": "ND ND ND", "mean, log10 nM": "ND", "empty controls": "5 of 9 (3.66)"}
{"changes": "S26C/N51Y/Q96G", "replicates, log10 nM": "4.02 ND ND", "mean, log10 nM": "4.02", "empty controls": "2 of 9 (3.55)"}
{"changes": "S89Q/D91S/F95I", "replicates, log10 nM": "3.45 3.39 4.03", "mean, log10 nM": "3.62", "empty controls": "6 of 9 (3.78)"}
{"changes": "R28N/N51Y/N52R", "replicates, log10 nM": "4.28 ND 4.33", "mean, log10 nM": "4.30", "empty controls": "0 of 9"}
{"changes": "E23Y/L27S/A32C", "replicates, log10 nM": "3.08 5.10 3.25", "mean, log10 nM": "3.81", "empty controls": "3 of 9 (3.78)"}
{"changes": "G49N/R53W/V97I", "replicates, log10 nM": "4.24 ND ND", "mean, log10 nM": "4.24", "empty controls": "2 of 9 (3.37)"}
{"changes": "S55E/S93G/F95C", "replicates, log10 nM": "3.12 2.05 ND", "mean, log10 nM": "2.59", "empty controls": "2 of 9 (3.81)"}
{"changes": "N51K/R90Y/V97R", "replicates, log10 nM": "3.35 3.66 3.74", "mean, log10 nM": "3.58", "empty controls": "4 of 9 (4.11)"}

For reference, 4 entries of the list once more:

| changes | replicates, log10 nM | mean, log10 nM | empty controls |
|---|---|---|---|
| Y29E/N33M/G49V | ND 4.22 ND | 4.22 | 4 of 9 (4.09) |
| N33A/R90V/V97S | 3.24 3.60 ND | 3.42 | 2 of 9 (3.14) |
| G24H/Y29L/R53W | 4.03 ND ND | 4.03 | 2 of 9 (4.17) |
| N51K/R90Y/V97R | 3.35 3.66 3.74 | 3.58 | 4 of 9 (4.11) |

From the AlphaSeq antibody data of Engelhart et al. 2022 (doi:10.1038/s41597-022-01779-4), copy in the FLAb collection.